PMC8630191

Biological target: 3xFLAG-tagged PP2Acβ ΔL mutant (Leu 309 deleted) (human) (UniProt P62714)
Experiment: affinity purification with mass spectrometry; 3xFLAG-tagged catalytic subunit (WT or ΔL) transfected in FreeStyle 293F cells; FLAG M2 affinity gel, 3 h at 4 °C; lysis and wash buffer 50 mM Tris pH 7.5, 500 mM NaCl, 0.5% Triton X-100; eluted with 3XFLAG peptide; label-free quantitative LC-MS/MS on unique peptides, three replicates

- fold reduction of binding, ΔL against WT: 2 fold
Substance: B56γ, PP2A regulatory subunit (from UniProt Q13362 1-524) (natural protein)
